Assay results from PubChem BioAssay (NCI).
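Protocol summary: plate cells (96-well), add compound at 5 concentrations, incubate 48 h, interpolate endpoints linearly. Here, GI50 denotes the concentration required for 50% inhibition of growth. TGI: concentration producing complete growth inhibition.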

System: MDA-MB-468 breast
Assay: NCI-60 cell line screen, 48 h

With `Nc1ccc(N(CCCl)CCCl)cc1` the GI50 was 3.13 µM and the TGI was 30.3 µM.
